Source: ChEMBL document CHEMBL1136085, “Structure-activity study of novel tricyclic benzazepine arginine vasopressin antagonists” (Bioorg Med Chem Lett, 2003)

Sequences of proteins named here, by UniProt entry; tags and fusion partners are left off.
UniProt P30560, whole entry: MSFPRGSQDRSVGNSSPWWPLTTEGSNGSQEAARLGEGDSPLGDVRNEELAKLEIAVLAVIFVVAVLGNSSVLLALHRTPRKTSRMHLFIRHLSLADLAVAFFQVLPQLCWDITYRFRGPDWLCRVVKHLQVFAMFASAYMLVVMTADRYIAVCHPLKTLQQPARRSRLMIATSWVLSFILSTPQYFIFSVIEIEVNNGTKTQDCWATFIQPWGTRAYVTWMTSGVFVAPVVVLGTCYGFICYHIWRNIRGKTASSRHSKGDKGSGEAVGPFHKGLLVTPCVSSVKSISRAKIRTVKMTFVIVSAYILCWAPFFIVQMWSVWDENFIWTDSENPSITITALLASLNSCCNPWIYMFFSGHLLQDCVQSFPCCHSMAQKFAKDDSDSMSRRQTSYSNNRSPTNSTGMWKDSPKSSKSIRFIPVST

Biological target: Vasopressin V1a receptor (Rattus norvegicus, UniProt P30560)
Assay: Inhibition of [3H]AVP binding to Dawley rat hepatic vasopressin V1a receptor.

O=C(Nc1ccc(C(=O)N2Cc3cccn3Cc3ccccc32)cc1)c1ccccc1O
IC50: 85 nM

Cc1ccc(F)cc1C(=O)Nc1ccc(C(=O)N2Cc3cccn3Cc3ccccc32)cc1
IC50: 20 nM
